The source of these data is PubChem BioAssay AID1346428 (National Center for Advancing Translational Sciences (NCATS), 2018).

The chains behind the UniProt entries cited, without tags or fusion partners.
UniProt O75388, whole entry: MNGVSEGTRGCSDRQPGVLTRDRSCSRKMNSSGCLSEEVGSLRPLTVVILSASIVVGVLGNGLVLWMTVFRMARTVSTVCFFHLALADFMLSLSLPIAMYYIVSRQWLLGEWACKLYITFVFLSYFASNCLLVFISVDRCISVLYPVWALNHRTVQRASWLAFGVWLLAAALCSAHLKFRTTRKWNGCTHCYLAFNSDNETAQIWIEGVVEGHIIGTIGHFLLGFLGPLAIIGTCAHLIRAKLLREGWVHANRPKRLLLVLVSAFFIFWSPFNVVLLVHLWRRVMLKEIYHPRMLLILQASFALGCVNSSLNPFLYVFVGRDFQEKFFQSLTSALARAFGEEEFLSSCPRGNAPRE

Structures are written as SMILES. The entries are a selection whose mix differs from that of the whole data set. The source made the active and inactive calls.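 How the source made its calls: active means activation of at least 60% and not above a set upper limit (about 1 call in 100 departs from these limits); inconclusive means activation of 40% to 60%, or above that upper limit; inactive means activation under 40%.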

The target of the assay is Probable G-protein coupled receptor 32 (Homo sapiens) (UniProt O75388). The experiment in a line: qHTS for Agonists of Human Resolvin D1 Receptor DRV1. Further: 0% is about no effect. Conditions: CHO-K1 GPR32 beta-arrestin PathHunter luminescence, 90 min; at 76.9 µM; active compounds read high; zero percent set by DMSO-only wells. (In general: qHTS replaces the single test concentration by a dilution series.)
On to `CCC(=O)N(c1ccccc1)C1CCNCC1`, for which the activation was inactive: -14.9%. On to `O=C(NCC1(N2CCOCC2)CCCCC1)c1ccccc1[N+](=O)[O-]`, for which the activation was inactive: 4.17%. The value for `O=C(NCC1(N2CCOCC2)CCCCC1)c1ccc([N+](=O)[O-])cc1` was inactive: 18%; that for `O=C(NCC1(N2CCOCC2)CCCCC1)c1ccccc1` was inactive: 0.765%; that for `CN(C)C1(CNC(=O)c2ccc(C(C)(C)C)cc2)CCCCC1` was inactive: 16.6%. As to `Cc1ccccc1C(=O)NCC1(N(C)C)CCCCC1`, the activation was inactive: -9.56%. For `CC(C)(C)c1ccc(C(=O)NCC2(N3CCOCC3)CCCCC2)cc1`, the activation is inactive: 46.3%. As for `COc1cc(C(=O)NCC2(N3CCOCC3)CCCCC2)cc(OC)c1OC`, the activation is inactive: 0.057%.

Regarding `CCOC(=O)N1CCC(=O)CC1`, the activation was inactive: 0.48%.

With `COc1ccccc1C(=O)NCC1(N2CCOCC2)CCCCC1`, the activation is inactive: 27%. For `O=C(NCC1(N2CCOCC2)CCCCC1)c1ccc(Cl)cc1`, the activation is inactive: 7.46%. As for `CCOc1ccc(C(=O)NCC2(N3CCOCC3)CCCCC2)cc1`, the activation is inactive: -20.7%.

Consider `CCCOc1cccc(C(=O)NCC2(N3CCOCC3)CCCCC2)c1`, for which the activation is inactive: -24.7%.

On to `CCCCOc1ccccc1C(=O)NCC1(N2CCOCC2)CCCCC1`, for which the activation was inactive: -45.2%.

For the compound `O=C(NCC1(N2CCOCC2)CCCCC1)c1ccccc1Br`, the activation is inactive: -9.99%.
